{
  "source": "patent EP0695544B1",
  "about": "“Hard gelatin capsules resistant to denaturation and the production thereof” (SHIONOGI & CO., LTD., priority 1994, dated 1996)",
  "conditions": "capsule shells stored without contact over 95 parts PEG 6000 + 5 parts scavenger, 60°C for a week; 2nd solution of JP12 (37 °C), observed after 5 to 6 minutes",
  "note": "Entries after “also recorded” stand apart in the source; their conditions may differ.",
  "data": [
    {"substance": "thiamine nitrate", "values": [
      {"measurement": "Solubility", "value": "completely prevented the decrease of the solubility; also recorded: soluble rapidly"}
    ]}
  ]
}
